Apparent affinities of Ab-14 variants for a coronavirus HR2 peptide

Reference: Engelhart et al. 2022, doi:10.1038/s41597-022-01779-4. File: FLAb, binding data.

The target is the same throughout: PDVDLGDISGINAS, from the HR2 region of SARS-CoV-2 spike.

The variants keep the light chain, the linker and the frameworks of Ab-14 (scFv order VH, a 15-residue (Gly4Ser)3 linker, VL).
VH: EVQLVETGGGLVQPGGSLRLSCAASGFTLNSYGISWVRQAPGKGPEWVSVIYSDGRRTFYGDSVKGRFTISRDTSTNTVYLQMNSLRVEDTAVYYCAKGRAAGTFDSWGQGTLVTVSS
VL: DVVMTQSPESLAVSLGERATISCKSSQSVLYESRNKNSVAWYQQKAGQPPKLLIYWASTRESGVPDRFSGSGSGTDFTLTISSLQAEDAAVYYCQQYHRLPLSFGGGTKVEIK

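The starting antibody came from a phage panning campaign against this peptide. Variants in AAYL49 differ from the parent at up to three CDR positions; double and triple changes were sampled at random. Affinity was read by AlphaSeq, a pooled yeast mating assay with surface-displayed partners. The frequency of each diploid, read from paired DNA barcodes, reflects how well the two displayed proteins bind. Read counts were normalised to the haploid input and turned into Kd by a linear fit to BCL2-family pairs of known affinity, for each replicate. The assay was run in three technical replicates.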

Changes read parent residue, position, new residue, counted from the first residue of the VH shown.
All variants listed here change L29 of the VH, counted from its first residue.
Values are log10 of the apparent Kd in nM; lower means stronger binding.
A mean of the replicates is given; it leaves out those without a signal.
"nd" means that the variant was in the library but no mating with the target was seen in that replicate; the authors take this as a sign of poor binding, and no number exists.
Parent in this assay: reference entry 0.65, copy in this library 4.11 (one replicate of three).
Empty control strains, which show no peptide, gave a signal in 15% of pairings with library AAYL49; the median was 4.06 and 95% of these signals were weaker than 2.83. No background was subtracted.

* L29G/S31K/G33L = nd, nd, nd
* F27E/L29Y/S53M = nd, nd, nd
* L29Y/S63V/V64Q = nd, nd, nd
* L29D/R56I/G61T = nd, 4.18, nd
* L29W/T58A/T104S = nd, nd, nd
* L29C/Y52C/D62V = 3.57, nd, nd
* L29N/G55T = nd, 4.29, nd
* L29F/S35V/S53N = nd, nd, nd
* L29V/V64H/R100N = 4.74, 3.06, nd (mean 3.90)
* L29D/V50C = nd, nd, nd
* T28S/L29N/V50W = nd, nd, nd
* L29N/K65S/G103P = nd, 4.18, nd
* L29M/A102L = 2.68, 2.40, 2.73 (mean 2.60)
* L29F/S31Q/D62P = 1.66, 1.80, 2.89 (mean 2.11)
* L29Y/G99F = nd, nd, nd
* T28C/L29I/S53F = nd, nd, nd
* L29I/I51M/R57H = 2.32, 2.80, 2.29 (mean 2.47)
* L29G/R56G/R57H = 3.53, nd, nd
* L29E/F105R/D106R = nd, 4.17, nd
* L29H/A101I/T104R = nd, nd, nd
* L29F/I51Y = nd, nd, nd
* L29C/Y52H/R57Y = nd, nd, 5.00
* L29R/R56W/D62L = nd, nd, nd
* L29S/S31Y/F59C = 4.67, nd, nd
* F27Q/L29V/K65I = nd, 3.72, 3.75 (mean 3.74)
* L29I/K65L/T104D = nd, nd, nd
* L29W/Y32Q/K65I = 3.51, 3.96, nd (mean 3.73)
* L29R/N30H/F59Y = nd, 4.06, nd
* L29I/S31W/K65C = 5.51, nd, nd
* F27M/L29Y/Y32N = nd, nd, 4.76
* L29Y/D62S/D106S = nd, nd, 4.21
* F27H/L29R/F59R = nd, nd, nd
* L29V/N30E/S63W = 3.20, 2.48, 2.86 (mean 2.85)
* L29I/T58E/F59L = nd, nd, nd
* L29W/I51L/D62A = nd, nd, 3.88

The opening 3 entries, copied out:

{"changes": "L29G/S31K/G33L", "log10 Kd, replicates": "nd, nd, nd", "mean log10 Kd (nM)": "nd"}
{"changes": "F27E/L29Y/S53M", "log10 Kd, replicates": "nd, nd, nd", "mean log10 Kd (nM)": "nd"}
{"changes": "L29Y/S63V/V64Q", "log10 Kd, replicates": "nd, nd, nd", "mean log10 Kd (nM)": "nd"}